Columns and labels:
[1] = DSC decomposition onset of recrystallized HI-6 DMS; details: heating rate 10° C. per minute, samples dried under vacuum 12-16 hours, listed as Unprocessed HI-6
[2] = Solubility determination of HI-6 DMS in solvents and antisolvents

For `NC(=O)c1cc[n+]([CH-]OC[n+]2ccccc2C=NO)cc1`, the “Decomp. (decomposition onset)” value [1] was 168.87 °C, the “Maximum Solubility” value ([2]; in 1,2-Propane Diol) was 2.847 % w/w and the “Maximum Solubility” value ([2]; in Acetonitrile (antisolvent)) was 0.124 % w/w. For the same compound, the “Maximum Solubility” value ([2]; in DMF (antisolvent)) was 0.1067 % w/w, the “Maximum Solubility” value ([2]; in Dimethyoxy ethane (antisolvent)) was 0.338 % w/w and the “Maximum Solubility” value ([2]; in Ethanol (antisolvent)) was 0.056 % w/w. The “Maximum Solubility” value ([2]; in Ethylene Glycol) was 14.153 % w/w, the “Maximum Solubility” value ([2]; in Isopropyl alcohol (antisolvent)) was 0.03 % w/w and the “Maximum Solubility” value ([2]; in Methanol) was 7.577 % w/w. The “Maximum Solubility” value ([2]; in Tert-butanol (antisolvent)) was 0.257 % w/w, the “Maximum Solubility” value ([2]; in Water) was 118.35 % w/w and the “Solubility in glycerol” value ([2]; in glycerol, no saturation point observed, solution became too viscous) was “highly soluble”.
